The test deals with Fc-gamma receptor hFcγ RI/CD64 (R&D Systems) (human) (UniProt P12314). Description: SPR, biotinylated binder captured on CAP chip, receptor as analyte, 1:1 fit (kd/ka). (In SPR one partner is held on a chip, and binding of the other changes the refractive index at the surface.)

Broadly, the Kd is the free concentration of one partner at which half of the binding sites on the other are occupied at equilibrium, for simple one-to-one binding.

As to “Reference Molecule 2 (comprising the amino acids shown in SEQ ID NOs: 103 and 104) (antibody; other documents disagree on this pair)”, the Kd was 78 pM.

For the origin of these results see patent US20160362460A1 (Pieris, published 2016).
